Results reported in patent US11377466B2, “Analogs of the natural product icariin” (Whitehead Institute for Biomedical Research, priority 2018, dated 2022).
Several values for one entry are separate records, joined by “and”; a condition that tells them apart may be missing. Equal values may be shown once.

Columns and labels:
[1] = target: purified recombinant human PDE5 (Homo sapiens, UniProt O76074); experiment: In vitro PDE5 inhibition assay (GMP production from cGMP, LC-MS); format: biochemical; details: for Field improved potency: fold change in IC50 compared to icariin
SY5Y cells = experiment: Cytotoxicity measured by resazurin, SY5Y; details: read-out: IC50 Values (μM), SY5Y, 0-10 μM
H187 cells = experiment: Cytotoxicity measured by resazurin, H187; format: cell-based, human; details: read-out: IC50 Values (μM), H187, 0-10 μM

COc1ccc(-c2oc3c(CC=C(C)C)c(O)cc(O)c3c(=O)c2OCCCO)cc1
Ki ([1]; enzyme kinetics, purified recombinant human PDE5): 38 nM | Field improved potency [1]: 42 and 43

COc1ccc(-c2oc3c(CC=C(C)C)c(O[C@@H]4O[C@H](CO)[C@@H](O)[C@H](O)[C@H]4O)cc(O)c3c(=O)c2OCCCO)cc1
fold decrease in potency compared to the unglycosylated 7 ([1]; 7-O-glucose combined with 3-O-hydroxypropyl): 6 | Field improved potency [1]: 8 | IC50 ([1]; purified recombinant human PDE5, cGMP at 1/10 of Km): 800 nM | IC50 (SY5Y cells): 5.02 µM | IC50 (H187 cells): > 10 µM
